Only some compounds are listed: those with a hit (about 16% of all), similar ones and a draw of the others.
TDP1 inh = TDP1 (human) enzyme inhibition. Potency, µM (top dose mostly 130 µM), for inactives: at the top dose activity change, negative = inhibition, most hits filed as inhibitors. recombinant TDP1, AlphaScreen DNA substrate cleavage. actives 0.28% (n = 350,000); also: potency is read from the fitted curve at half-maximal effect; % is scaled to controls: 0 for no effect and ±100 for the full control effect; nearly all actives have a fitted effect of over 40% in size
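Recombinant E. coli-expressed Tdp1 (1 nM) preincubated with compound 15 min at RT, then 5'-biotin/3'-phosphotyrosine-FITC DNA substrate (15 nM) added for 5 min. AlphaScreen beads (10 ug/ml) added, 10 min RT; tyrosine-FITC cleavage read as signal loss.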
DT40 TDP1 CPT = DT40-hTDP1 cell growth loss with CPT; chicken DT40 Tdp1-/-;hTDP1 cells + 20 nM CPT, ATP luminescence, 48 h; Potency, µM (doses to about 46.2 µM), inactives show at the highest dose activity change, negative = growth inhibition, actives largely listed as inhibitors; actives 12% (n = 420,000); AID 686979; also: potency is read from the fitted curve at half-maximal effect; % is scaled to controls: 0 for no effect and ±100 for the full control effect; nearly all actives have a fitted effect of over 55% in size
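Chicken DT40 Tdp1-/- cells stably complemented with human TDP1 were seeded at 400 cells/well in medium containing 20 nM camptothecin, exposed to pin-transferred compounds, and grown at 37 °C for at least 48 hr. Viability was read as ATP luminescence.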
uPA surface inh = cell surface uPA generation inhibition | cell surface uPA generation assay, qHTS | Potency, µM (top dose mostly 38.3 µM), for the others: top-dose activity change, negative = inhibition, most hits filed as inhibitors | actives 0.31% (n = 330,000); active = well fitted inhibition curve with a large enough effect; inconclusive = small, poorly fitted or top-dose-only effect; inactive = no such curve, though single readings can be large or run the other way; tested in mouse RAW 264.7 cells; also: potency is read from the fitted curve at half-maximal effect; % is scaled to controls: 0 for no effect and ±100 for the full control effect; nearly all actives have a fitted effect of over 55% in size
DT40 TDP1 no CPT = qHTS for Inhibitors of human tyrosyl-DNA phosphodiesterase 1 (TDP1): qHTS in cells in absence of CPT; DT40 Tdp1-/- hTDP1 cells, no CPT, ATP luminescence, 48 h; Potency, µM (doses to about 46.2 µM), for inactives: at the top dose activity change, negative = growth inhibition, hits mostly inhibitors; actives 15% (n = 420,000); also: potency is read from the fitted curve at half-maximal effect; % is scaled to controls: 0 for no effect and ±100 for the full control effect; nearly all actives have a fitted effect of over 55% in size
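Compound effects on proliferation are scored in DT40 Tdp1-/-;hTDP1 cells in the absence of CPT. ATP levels (CellTiter-Glo luminescence) are recorded after a ≥48 hr, 37 °C incubation.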
miR-21 FLuc = raises the signal of a miR-21 reporter; HeLa miR-21 FLuc reporter, luciferase, 48 h; Potency, µM (top dose mostly 38.3 µM), for inactives: at the highest dose reporter change, positive = more light; AID 2288; 340,000 tested, under 10 active; active = well fitted rising curve with a large enough effect; inconclusive = small, poorly fitted or top-dose-only effect; inactive = no such curve, though single readings can be large or run the other way;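 note: % of control where 0% means no effect; miR-21 action dims this reporter so a rising signal means less miR-21 action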
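HeLa miR-21-FLuc reporter line, endogenous miR-21; 2000 cells/well in DMEM/10% FBS; compound titration up to ~40uM final, 48 h, 37 degree Celsius; luciferase detection reagent, 15 min lysis, CCD luminescence.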
Numbers without * were called inactive; u = inconclusive; x = not tested or not shown; [ ] = another dose, or the depositor's remark. Unless noted, calls follow the shape of the dose curve; as a rule, active = well fitted curve in the direction sought with a large enough effect; inconclusive = small, poorly fitted or top-dose-only effect, or another doubt; inactive = no such curve, though single readings can be large; an effect the other way counts as inactive or inconclusive.

(1) COC(=O)CSc1snnc1-c1ccc(F)cc1
(2) CCCN1C2CCCC1CC(NC(=S)NCCCOCC)C2 (configuration not stated)
(3) O=C(O)c1ccc(-c2nnn(Cc3cccc(C(F)(F)F)c3)n2)cc1
(4) CCOc1ccccc1N1CCN(C(=O)c2cc3c(C)cc(C)cc3[nH]2)CC1
(5) CCOc1ccccc1N1CCN(C(=O)c2ccc3[nH]c4c(c3c2)CCCC4)CC1
(6) Cc1c(C=O)c2ccccn2c1C(=O)c1ccc(F)cc1
(7) Nc1nc(Cl)cc(N2CCC(c3cc(-c4ccc(Cl)cc4Cl)n[nH]3)CC2)n1
(8) CC(C)c1nnc(NC(=O)CCC(=O)Nc2ccc(Cl)cc2)s1
(9) CCOC(=O)C(C)Sc1nc(-c2ccccn2)ncc1OC (configuration not stated)
(10) COc1cnc(-c2ccccn2)nc1Sc1c(Cl)cccc1Cl

assay / compound | 1 | 2 | 3 | 4 | 5 | 6 | 7 | 8 | 9 | 10
TDP1 inh | 3.8% | 0.0% | x | x | 5.7% | x | 6.4% | 1.8% | 2.9% | 2.9%
DT40 TDP1 CPT | 0.9% | 4.7% | -6.5% | u | 20.6µM* | u | 4.11µM* | 2.6% | 2.91µM* | 0.651µM*
uPA surface inh | 0.9% | -4.7% | 10.0% | 0.5% | 3.3% | -0.5% | -10.3% | -1.5% | -1.1% | x
DT40 TDP1 no CPT | -2.5% | 22.3% | -19.9% | 23.1µM* | u | -25.7% | 4.11µM* | 17.9% | 5.8µM* | 0.92µM*
miR-21 FLuc | -0.1% | -2.7% | -1.3% | 6.2% | -1.0% | -5.3% | 23.2% | -0.7% | -4.4% | 18.7%

(11) COc1cnc(-c2ccccc2)nc1Sc1ccccc1
(12) COc1ccccc1Sc1nc(-c2ccccc2)ncc1OC
(13) COc1cnc(-c2ccccn2)nc1Sc1ccccc1Cl
(14) CCC1CCC(c2nnc(-c3ccc(Br)cc3)o2)CC1 (configuration not stated)
(15) Cc1ccc2oc(C(=O)NCCCN3CCOCC3)c(C)c2c1
(16) COc1cc(NC(=O)C2CCCN(S(=O)(=O)c3ccc4c(c3)CCCC(=O)N4)C2)cc(OC)c1 (configuration not stated)
(17) Cc1cccc(NC(=S)N/N=C/c2cccn2Cc2ccc(F)cc2)c1
(18) COc1ccc(NC(=S)N/N=C/c2cccn2Cc2ccc(F)cc2Cl)cc1
(19) CSc1ccccc1NC(=S)N/N=C/c1cccn1Cc1ccc(F)cc1
(20) COc1cc(C(=O)Nc2ccc(N(C)C)cc2)c([N+](=O)[O-])cc1OC

assay / compound | 11 | 12 | 13 | 14 | 15 | 16 | 17 | 18 | 19 | 20
TDP1 inh | -4.8% | -3.6% | 10.5% | -4.6% | 2.1% | -4.2% | 11.6% | 5.0% | 7.5% | 7.4%
DT40 TDP1 CPT | 0.2% | u | 1.46µM* | -24.4% | u | x | u | 23.1µM* | u | 2.3%
uPA surface inh | 2.1% | 3.1% | -1.5% | 1.9% | -1.5% | x | -4.2% | -4.0% | 5.2% | 4.4%
DT40 TDP1 no CPT | u | 20.6µM* | 1.03µM* | u | u | x | 16.4µM* | 10.3µM* | 23.1µM* | -2.3%
miR-21 FLuc | 5.8% | 12.6% | 26.0% | -18.0% | -60.5% | 2.7% | 23.2% | -2.2% | 15.6% | -18.4%

Compounds listed so far containing an NH in an aromatic ring:
(4) CCOc1ccccc1N1CCN(C(=O)c2cc3c(C)cc(C)cc3[nH]2)CC1
(5) CCOc1ccccc1N1CCN(C(=O)c2ccc3[nH]c4c(c3c2)CCCC4)CC1
(7) Nc1nc(Cl)cc(N2CCC(c3cc(-c4ccc(Cl)cc4Cl)n[nH]3)CC2)n1

assay / compound | 4 | 5 | 7
TDP1 inh | x | 5.7% | 6.4%
DT40 TDP1 CPT | u | 20.6µM* | 4.11µM*
uPA surface inh | 0.5% | 3.3% | -10.3%
DT40 TDP1 no CPT | 23.1µM* | u | 4.11µM*
miR-21 FLuc | 6.2% | -1.0% | 23.2%

The listing continues:
(21) CCOC(=O)c1ccc(N2C=C(C(=O)OC)C(c3ccc(OC)c(O)c3)C(C(=O)OC)=C2)cc1
(22) CC1(C(=O)NNC(=O)c2ccc(=O)oc2)CC1Br (configuration not stated)
(23) Cc1ccc(NC(=O)C2CCN(S(=O)(=O)c3ccc4[nH]c(=O)ccc4c3)CC2)c(C)c1
(24) CCCc1nnc(SCc2ccc(OC)cc2)n1N
(25) CCCOc1ccc(CSc2nnc(CCC)n2N)cc1
(26) CC1CCC(NC(=O)CN(C)S(=O)(=O)c2ccc3c(c2)CCC(=O)N3)CC1 (configuration not stated)
(27) CC[C@@H]1C(c2cccc(C)c2)=NN(c2ccc(Br)cc2)[C@H]1C(=O)N1CCOC1=O
(28) O=C(CSc1nnc(-c2cccnc2)n1-c1ccccc1)Nc1ccc2c(c1)OCO2
(29) NC(=S)NN=C1CCC(C2CCCCC2)CC1 (configuration not stated)
(30) NC(=S)NN=C1CCCCCCCCCC1

assay / compound | 21 | 22 | 23 | 24 | 25 | 26 | 27 | 28 | 29 | 30
TDP1 inh | x | 12.8% | x | 8.7% | 0.0% | 0.8% | -3.1% | 4.3% | x | x
DT40 TDP1 CPT | u | -14.2% | -4.3% | 25.9µM* | -18.7% | -9.9% | x | -7.0% | 5.8µM* | 3.66µM*
uPA surface inh | -3.5% | 0.0% | 6.3% | 3.5% | 6.9% | 5.3% | x | 2.7% | -4.7% | -7.6%
DT40 TDP1 no CPT | -13.2% | -29.7% | -18.9% | 18.4µM* | -23.0% | 6.7% | x | -18.2% | 3.66µM* | 10.3µM*
miR-21 FLuc | -4.4% | -5.6% | -3.2% | -5.0% | -7.6% | -11.0% | x | 1.1% | x | x

(31) COCCNC(=S)NN=C1CCCCCC1
(32) COC(=O)[C@@]1(Cc2ccc(F)cc2)[C@H]2c3cc(C(=O)N4CCCC4)n(Cc4c(CO)[nH]cc(C)c4=O)c3C[C@H]2CN1C(=O)c1ccccc1
(33) CCCCCCCCCCCCCCCCCCN(CCCCCCCCCCCCCCCCCC)c1ccccc1
(34) CCCCCCCCCCCCCCCC[N+](C)(C)Cc1ccc(F)cc1
(35) CCCCCCCCCCCCC[N+](C)(C)Cc1ccccc1
(36) O=C1CN(C(=O)c2ccc(Cl)nc2)c2ccccc2N1
(37) C[N+]1(C)CCCC(OC(=O)C(O)(c2ccccc2)c2ccccc2)C1 (configuration not stated)
(38) Cc1ccc(S(=O)(=O)NCC2CCC(C(=O)NCc3ccc4c(c3)OCO4)CC2)cc1 (configuration not stated)
(39) CCCn1c(SCC(=O)N2CCN(c3ccc(OC)cc3)CC2)nc2c1c(=O)n(C)c(=O)n2C
(40) CCCCCCn1c(N2CCN(c3ccccc3)CC2)nc2c1c(=O)n(C)c(=O)n2C

assay / compound | 31 | 32 | 33 | 34 | 35 | 36 | 37 | 38 | 39 | 40
TDP1 inh | 4.6% | 13.5% | x | x | 9.1% | -3.5% | 5.1%[56.1 µM] | 6.8% | 5.3% | 5.5%
DT40 TDP1 CPT | u | x | 3.2% | 6.51µM* | 0.651µM* | 2.9% | 0.7% | u | 18.4µM* | u
uPA surface inh | -13.9% | x | x | -4.7% | x | 5.3% | 14.3% | 5.2% | 2.4% | x
DT40 TDP1 no CPT | 22.8% | x | 3.6% | 7.31µM* | 0.581µM* | 2.6% | -1.8% | u | 16.4µM* | 20.6µM*
miR-21 FLuc | -0.3% | x | x | x | x | 2.6% | x | -3.7% | 10.4% | 0.9%

(41) CC1Cc2ccccc2N1C(=O)CSc1nc2c(c(=O)n(C)c(=O)n2C)n1Cc1ccccc1 (configuration not stated)
(42) Cn1c(=O)c2c(nc(N3CCOCC3)n2Cc2ccc(Br)cc2)n(C)c1=O
(43) CC1Cc2ccccc2N1C(=O)CSc1nnnn1Cc1ccccc1 (configuration not stated)
(44) COCCn1c(N2CCN(c3ccccc3)CC2)nc2c1c(=O)n(C)c(=O)n2C
(45) Cn1c(=O)c2c(nc(N3CCOCC3)n2CCc2ccccc2)n(C)c1=O
(46) Cc1ccccc1C1(CC(=O)N2CCN(C)CC2)CC(=O)N(Cc2ccncc2)C1=O (configuration not stated)
(47) N#C/C(=C\c1ccco1)Sc1nc2ccccc2s1

assay / compound | 41 | 42 | 43 | 44 | 45 | 46 | 47
TDP1 inh | 6.7% | x | 3.8% | 2.5% | 7.4% | x | 0.0%
DT40 TDP1 CPT | 23.1µM* | 10.3µM* | u | -26.3% | -22.7% | -12.7%[9.04 µM] | -16.7%
uPA surface inh | 10.9% | x | -0.1% | -8.6% | -7.7% | x | -6.2%
DT40 TDP1 no CPT | 20.6µM* | 20.6µM* | u | u | -8.2% | -1.1% | -17.9%
miR-21 FLuc | -4.7% | -0.6% | -1.7% | 1.3% | -7.5% | x | -29.4%

Part of the list above in order of molecular weight, smallest number first.
(25) CCCOc1ccc(CSc2nnc(CCC)n2N)cc1
(40) CCCCCCn1c(N2CCN(c3ccccc3)CC2)nc2c1c(=O)n(C)c(=O)n2C
(42) Cn1c(=O)c2c(nc(N3CCOCC3)n2Cc2ccc(Br)cc2)n(C)c1=O

assay / compound | 25 | 40 | 42
TDP1 inh | 0.0% | 5.5% | x
DT40 TDP1 CPT | -18.7% | u | 10.3µM*
uPA surface inh | 6.9% | x | x
DT40 TDP1 no CPT | -23.0% | 20.6µM* | 20.6µM*
miR-21 FLuc | -7.6% | 0.9% | -0.6%
